Measured values: patent US9090618B2, “Substituted benzimidazole-type piperidine compounds and uses thereof” (dated 2015)

Tests used:
[1] = molecular target: human opioid receptor-like (ORL-1) (Homo sapiens (Human), UniProt P41146); assay: In vitro ORL-1 receptor [35S]GTPγS functional assay; conditions: for GTPγS ORL-1 Emax [mean ± SEM]: ORL-1 receptor activity response, procedure of Example 22
kappa opioid receptor = kappa opioid receptor (Homo sapiens (Human), UniProt P41145); assay: In vitro kappa-opioid receptor [35S]GTPγS functional assay
[2] = molecular target: recombinant delta opioid receptor expressed in CHO-K1 cells (Homo sapiens (Human), UniProt P41143); assay: In vitro delta-opioid receptor binding assay ([3H]-Naltrindole displacement)

Row | Structure (SMILES) | EC50 [1] [nM] | GTPγS ORL-1 Emax [mean ± SEM] [1] [%] | EC50 (kappa opioid receptor) [nM] | Ki [2] [nM]
1 | c1ccc2c(c1)nc(C[C@H]1COCCN1)n2[C@H]1C[C@H]2CCC[C@@H](C1)N2[C@@H]1C[C@@H]2CCCC[C@@H](C2)C1 | 17 | 61.3 ± 1.5 | > 20000 | > 20000
2 | CONC(=N)/N=c1\[nH]c2ccccc2n1C1CCN(C2CCCCCCC2)CC1 | 70.8 | 107.3 ± 4.2 | 1010 | 
3 | O=C(O)CN1CC[C@H](c2nc3ccccc3n2[C@H]2C[C@H]3CCC[C@@H](C2)N3[C@@H]2C[C@@H]3CCCC[C@@H](C3)C2)C1 | 65 | 85.3 ± 4.3 |  | 
4 | O=C(O)CN1CCC[C@H]1c1nc2ccccc2n1[C@H]1C[C@H]2CCC[C@@H](C1)N2[C@@H]1C[C@@H]2CCCC[C@@H](C2)C1 | 16.2 | 55.7 ± 3.7 |  | 
5 | COC(=O)/N=c1\n(CC(N)=O)c2ccccc2n1C1CCN(C2CCCCCCC2)CC1 | 124 | 66.0 ± 4.7 |  | 
6 | O=C(O)CN1CCC[C@@H]1c1nc2ccccc2n1[C@H]1C[C@H]2CCC[C@@H](C1)N2C1CCCCCCCCC1 |  | 125.3 ± 4.3 |  | 
7 | O=C(O)CCN1CCC[C@H]1Cc1nc2ccccc2n1[C@H]1C[C@H]2CCC[C@@H](C1)N2[C@@H]1C[C@@H]2CCCC[C@@H](C2)C1 | 104 | 66 ± 2 | > 20000 | > 20000
8 | CS(=O)(=O)NCCN1CCC[C@H]1Cc1nc2ccccc2n1[C@H]1C[C@H]2CCC[C@@H](C1)N2[C@@H]1C[C@@H]2CCCC[C@@H](C2)C1 | 59.3 | 58.3 ± 2.3 | > 20000 | > 20000
9 | O=C(O)CCN1CCC(c2nc3ccccc3n2[C@H]2C[C@H]3CCC[C@@H](C2)N3[C@@H]2C[C@@H]3CCCC[C@@H](C3)C2)CC1 |  | 104.3 ± 5.9 |  | 
10 | O=C(O)CCN1CCC[C@@H](Cc2nc3ccccc3n2[C@H]2C[C@H]3CCC[C@@H](C2)N3[C@@H]2C[C@@H]3CCCC[C@@H](C3)C2)C1 | 82 | 22.8 ± 0.8 |  | 
11 | O=C(O)CN1CCCC[C@@H]1c1nc2ccccc2n1[C@H]1C[C@H]2CCC[C@@H](C1)N2[C@@H]1C[C@@H]2CCCC[C@@H](C2)C1 | 104 | 38.5 ± 2.1 | 1530 | > 20000
12 | O=C1CC[C@@H](Cc2nc3ccccc3n2[C@H]2C[C@H]3CCC[C@@H](C2)N3[C@@H]2C[C@@H]3CCCC[C@@H](C3)C2)N1 | 3.6 | 14.3 ± 1.0 |  | 
13 | O=C(O)CN1CCCC[C@H]1c1nc2ccccc2n1[C@H]1C[C@H]2CCC[C@@H](C1)N2[C@@H]1C[C@@H]2CCCC[C@@H](C2)C1 | 121 | 40.3 ± 2.2 | > 20000 | 
14 | O=C(O)CCN1CC[C@H](c2nc3ccccc3n2[C@H]2C[C@H]3CCC[C@@H](C2)N3[C@@H]2C[C@@H]3CCCC[C@@H](C3)C2)C1 |  | 90 ± 3 |  | 
15 | COCCOCCOCCN1CCC[C@@H](c2nc3ccccc3n2[C@H]2C[C@H]3CCC[C@@H](C2)N3[C@H]2C[C@@H]3CCC[C@@H](C3)C2)C1 |  | 23.0 ± 0.6 |  | 
16 | NC(=O)CN1CCC[C@H](c2nc3ccccc3n2[C@H]2C[C@H]3CCC[C@@H](C2)N3[C@@H]2C[C@@H]3CCCC[C@@H](C3)C2)C1 | 6.2 | 18.7 ± 3.2 |  | 
17 | c1ccc2c(c1)nc(Cc1cnccn1)n2[C@H]1C[C@H]2CCC[C@@H](C1)N2[C@@H]1C[C@@H]2CCCC[C@@H](C2)C1 | 12.6 | 53.7 ± 4.2 |  | 
18 | COCCOCCOCCN1CCC[C@H](c2nc3ccccc3n2[C@H]2C[C@H]3CCC[C@@H](C2)N3[C@H]2C[C@@H]3CCC[C@@H](C3)C2)C1 |  | 24.3 ± 0.9 |  | 
19 | O=C(O)CN1CCC(c2nc3ccccc3n2[C@H]2C[C@H]3CCC[C@@H](C2)N3[C@@H]2C[C@@H]3CCCC[C@@H](C3)C2)CC1 |  | 106 ± 3.8 |  | 
20 | NC(=O)CN1CCC[C@H]1c1nc2ccccc2n1[C@H]1C[C@H]2CCC[C@@H](C1)N2[C@@H]1C[C@@H]2CCCC[C@@H](C2)C1 | 38 | 35.3 ± 1.5 | > 20000 | > 20000
21 | O=C(O)CCN1CC(c2nc3ccccc3n2[C@H]2C[C@H]3CCC[C@@H](C2)N3[C@@H]2C[C@@H]3CCCC[C@@H](C3)C2)C1 | 38.9 | 101.7 ± 3.4 |  | 
22 | O=C(O)CCN1CCC[C@@H]1c1nc2ccccc2n1[C@H]1C[C@H]2CCC[C@@H](C1)N2[C@@H]1C[C@@H]2CCCC[C@@H](C2)C1 | 139 | 49.7 ± 9.3 | > 20000 | > 20000
23 | c1ccc2c(c1)nc(-c1cnccn1)n2[C@H]1C[C@H]2CCC[C@@H](C1)N2[C@H]1C[C@@H]2CCC[C@@H](C2)C1 | 8 | 7.0 ± 0.7 |  | 

Row | Structure (SMILES) | EC50 [1] [nM] | GTPγS ORL-1 Emax [mean ± SEM] [1] [%] | EC50 (kappa opioid receptor) [nM] | Ki [2] [nM]
24 | O=C(O)CNc1nc2ccccc2n1C1C[C@H]2CCC[C@@H](C1)N2C1CCCCCCCCC1 (stereo partly shown) | 220 | 120.7 ± 6.7 | > 20000 | 
25 | Cc1nnc(Cc2nc3ccccc3n2[C@H]2C[C@H]3CCC[C@@H](C2)N3[C@@H]2C[C@@H]3CCCC[C@@H](C3)C2)[nH]1 | 5.61 | 28.8 ± 2.5 |  | 
26 | c1ccc2c(c1)nc(C[C@@H]1COCCN1)n2[C@H]1C[C@H]2CCC[C@@H](C1)N2[C@@H]1C[C@@H]2CCCC[C@@H](C2)C1 | 4.7 | 56.0 ± 2.1 | > 20000 | > 20000
27 | Cc1cc(-c2nc3ccccc3n2[C@H]2C[C@H]3CCC[C@@H](C2)N3[C@H]2C[C@@H]3CCC[C@@H](C3)C2)no1 | 14.3 | 23.3 ± 0.9 |  | 
28 | CS(=O)(=O)NCCN1CCC[C@@H](Cc2nc3ccccc3n2[C@H]2C[C@H]3CCC[C@@H](C2)N3[C@@H]2C[C@@H]3CCCC[C@@H](C3)C2)C1 | 12.5 | 16.3 ± 0.3 |  | 
29 | O=C(O)CNc1nc2ccccc2n1C1C[C@H]2CCC[C@@H](C1)N2[C@H]1C[C@@H]2CCC[C@@H](C2)C1 (stereo partly shown) | 64.8 | 21.67 ± 0.33 |  | 
30 | CCN(CC)C(=O)CN1CC[C@@H](Cc2nc3ccccc3n2[C@H]2C[C@H]3CCC[C@@H](C2)N3[C@@H]2C[C@@H]3CCCC[C@@H](C3)C2)C1 | 28.4 | 31.7 ± 3.3 | > 20000 | > 20000
31 | CCN(CC)C(=O)CN1CCC[C@@H](Cc2nc3ccccc3n2[C@H]2C[C@H]3CCC[C@@H](C2)N3[C@@H]2C[C@@H]3CCCC[C@@H](C3)C2)C1 | 40 | 11 ± 1 |  | 
32 | O=C(O)CN1CCCC[C@H]1Cc1nc2ccccc2n1[C@H]1C[C@H]2CCC[C@@H](C1)N2[C@@H]1C[C@@H]2CCCC[C@@H](C2)C1 | 101 | 40.3 ± 0.7 | > 20000 | > 20000
33 | Cc1nc(C)c(-c2nc3ccccc3n2[C@H]2C[C@H]3CCC[C@@H](C2)N3[C@H]2C[C@@H]3CCC[C@@H](C3)C2)s1 | 71.7 | 21 ± 1 |  | 
34 | c1ccc2c(c1)nc(-c1nnc[nH]1)n2[C@H]1C[C@H]2CCC[C@@H](C1)N2[C@@H]1C[C@@H]2CCCC[C@@H](C2)C1 | 5.8 | 22.3 ± 1.3 |  | 
35 | O=C(O)CN1CCC[C@@H]1c1nc2ccccc2n1[C@H]1C[C@H]2CCC[C@@H](C1)N2[C@@H]1C[C@@H]2CCCC[C@@H](C2)C1 | 39.6 | 41 ± 1 | > 20000 | 
36 | O=C(O)CCN1CC[C@@H](Cc2nc3ccccc3n2[C@H]2C[C@H]3CCC[C@@H](C2)N3[C@@H]2C[C@@H]3CCCC[C@@H](C3)C2)C1 | 62.5 | 63.3 ± 3.8 | > 20000 | > 20000
37 | Cn1ccnc1CN1CCOC[C@H]1Cc1nc2ccccc2n1[C@H]1C[C@H]2CCC[C@@H](C1)N2[C@@H]1C[C@@H]2CCCC[C@@H](C2)C1 | 26.9 | 23.3 ± 0.9 |  | 
38 | c1ccc2c(c1)nc(-c1cnccn1)n2[C@H]1C[C@H]2CCC[C@@H](C1)N2[C@@H]1C[C@@H]2CCCC[C@@H](C2)C1 | 3 | 10.3 ± 0.9 |  | 
39 | O=C(O)CN1CCC[C@H](c2nc3ccccc3n2[C@H]2C[C@H]3CCC[C@@H](C2)N3[C@@H]2C[C@@H]3CCCC[C@@H](C3)C2)C1 | 95 | 66.7 ± 5.5 | > 20000 | > 20000
40 | O=C(O)CN1CCC(Cc2nc3ccccc3n2[C@H]2C[C@H]3CCC[C@@H](C2)N3[C@@H]2C[C@@H]3CCCC[C@@H](C3)C2)CC1 | 37 | 85.0 ± 2.6 |  | 
41 | CS(=O)(=O)NCCN1CC[C@@H](Cc2nc3ccccc3n2[C@H]2C[C@H]3CCC[C@@H](C2)N3[C@@H]2C[C@@H]3CCCC[C@@H](C3)C2)C1 | 8.9 | 43 ± 3 | > 20000 | > 20000
42 | O=C(O)CN1CCC[C@@H](Cc2nc3ccccc3n2[C@H]2C[C@H]3CCC[C@@H](C2)N3[C@@H]2C[C@@H]3CCCC[C@@H](C3)C2)C1 | 22.8 | 15 ± 1 |  | 
43 | O=C(O)CN1CC(c2nc3ccccc3n2[C@H]2C[C@H]3CCC[C@@H](C2)N3[C@@H]2C[C@@H]3CCCC[C@@H](C3)C2)C1 | 37.7 | 102 ± 1 |  | 
44 | OCc1nc2ccccc2n1C1C[C@H]2CCC[C@@H](C1)N2[C@H]1C[C@@H]2CCC[C@@H](C2)C1 (stereo partly shown) | 17.5 | 33.0 ± 1.3 | > 20000 | 
45 | c1ccc2c(c1)nc(-c1ccno1)n2[C@H]1C[C@H]2CCC[C@@H](C1)N2[C@H]1C[C@@H]2CCC[C@@H](C2)C1 | 16.6 | 22.7 ± 1.2 |  | 
46 | c1ccc2c(c1)nc(Cc1nnn[nH]1)n2[C@H]1C[C@H]2CCC[C@@H](C1)N2[C@@H]1C[C@@H]2CCCC[C@@H](C2)C1 | 38.4 | 17.3 ± 0.3 |  | 
